Test results from patent US20200048267A1, “OGA INHIBITOR COMPOUNDS” (Janssen Pharmaceutica NV, priority 2017, published 2020).

Chains of the proteins cited; added tags and fusions are not shown.
UniProt O60502, whole entry: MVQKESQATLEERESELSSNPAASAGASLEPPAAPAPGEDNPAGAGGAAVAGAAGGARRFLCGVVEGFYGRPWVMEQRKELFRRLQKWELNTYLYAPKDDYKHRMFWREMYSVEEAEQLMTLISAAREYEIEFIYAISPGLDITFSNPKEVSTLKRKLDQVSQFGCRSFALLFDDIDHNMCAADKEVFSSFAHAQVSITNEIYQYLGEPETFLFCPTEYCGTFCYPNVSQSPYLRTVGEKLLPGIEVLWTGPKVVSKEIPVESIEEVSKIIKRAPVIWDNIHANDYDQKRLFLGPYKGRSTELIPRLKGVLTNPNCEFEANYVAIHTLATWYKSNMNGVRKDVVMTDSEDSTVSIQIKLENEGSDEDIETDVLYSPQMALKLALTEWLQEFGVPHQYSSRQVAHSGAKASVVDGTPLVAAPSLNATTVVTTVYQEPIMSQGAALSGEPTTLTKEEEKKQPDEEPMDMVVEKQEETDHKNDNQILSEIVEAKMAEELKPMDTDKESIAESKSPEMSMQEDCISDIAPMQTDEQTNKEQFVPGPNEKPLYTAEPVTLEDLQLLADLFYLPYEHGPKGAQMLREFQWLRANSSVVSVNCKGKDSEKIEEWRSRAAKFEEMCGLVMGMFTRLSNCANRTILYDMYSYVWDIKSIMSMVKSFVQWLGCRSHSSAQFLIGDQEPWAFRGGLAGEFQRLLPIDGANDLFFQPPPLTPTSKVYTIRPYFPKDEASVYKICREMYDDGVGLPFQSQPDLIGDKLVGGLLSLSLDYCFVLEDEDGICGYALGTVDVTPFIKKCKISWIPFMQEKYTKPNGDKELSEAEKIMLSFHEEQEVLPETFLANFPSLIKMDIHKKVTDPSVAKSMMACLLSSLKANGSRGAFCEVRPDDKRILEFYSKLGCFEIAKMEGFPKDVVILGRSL

Columns and labels:
[1] = biological target: recombinant human Meningioma Expressed Antigen 5 (MGEA5), also referred to as O-GlcNAcase (OGA) (Homo sapiens, UniProt O60502); assay: OGA biochemical assay (inhibition of FM-GlcNAc hydrolysis, fluorescence)
Source text: The assay is based on the inhibition of the hydrolysis of fluorescein mono-β-D-N-Acetyl-Glucosamine (FM-GlcNAc) (Mariappa et al. 2015, Biochem J 470:255) by the recombinant human Meningioma Expressed Antigen 5 (MGEA5), also referred to as O-GlcNAcase (OGA). The hydrolysis FM-GlcNAc (Marker Gene technologies, cat # M1485) results in the formation of B-D-N-glucosamineacetate and fluorescein. The fluorescence of the latter can be measured at excitation wavelength 485 nm and emission wavelength 538 nm. An increase in enzyme activity results in an increase in fluorescence signal. Full length OGA enzyme was purchased at OriGene (cat # TP322411). The enzyme was stored in 25 mM Tris.HCl, pH 7.3, 100 mM glycine, 10% glycerol at −20° C. Thiamet G and GlcNAcStatin were tested as reference compounds (Yuzwa et al. 2008 Nature Chemical Biology 4:483; Yuzwa et al. 2012 Nature Chemical Biology 8:393). The assay was performed in 200 mM Citrate/phosphate buffer supplemented with 0.005% Tween-20. 35.6 g Na2HPO4 2 H2O (Sigma, # C0759) were dissolved in 1 L water to obtain a 200 mM solution. 19.2 g citric acid (Merck, # 1.06580) was dissolved in 1 L water to obtain a 100 mM solution. pH of the sodium phosphate solution was adjusted with the citric acid solution to 7.2. The buffer to stop the reaction consists of a 500 mM Carbonate buffer, pH 11.0. 734 mg FM-GlcNAc were dissolved in 5.48 mL DMSO to obtain a 250 mM solution and was stored at −20° C. OGA was used at 2 nM concentration and FM-GlcNAc at a 100 uM final concentration. Dilutions were prepared in assay buffer.
50 nl of a compound dissolved in DMSO was dispensed on Black Proxiplate™ 384 Plus Assay plates (Perkin Elmer, #6008269) and 3 μl fl-OGA enzyme mix added subsequently. Plates were pre-incubated for 60 min at room temperature and then 2 μl FM-GlcNAc substrate mix added. […] Plates were briefly centrifuged for 1 min at 1000rpm and incubate at room temperature for 6 h. To stop the reaction 5 μl STOP buffer were added and plates centrifuge again 1 min at 1000 rpm.
Fluorescence was quantified in the Thermo Scientific Fluoroskan Ascent or the PerkinElmer EnVision with excitation wavelength 485 nm and emission wavelength 538 nm.
For analysis a best-fit curve is fitted by a minimum sum of squares method. From this an IC50 value and Hill coefficient was obtained. High control (no inhibitor) and low control (saturating concentrations of standard inhibitor) were used to define the minimum and maximum values.

[2] = biological target: OGA (Homo sapiens, UniProt O60502); assay: OGA cellular assay (ICC detection of O-GlcNAcylated proteins in HEK293 cells inducible for P301L mutant human Tau); settings: 6 hours incubation
Experimental: HEK293 cells inducible for P301L mutant human Tau (isoform 2N4R) were established at Janssen. Thiamet-G was used for both plate validation (high control) and as reference compound (reference EC50 assay validation). OGA inhibition is evaluated through the immunocytochemical (ICC) detection of O-GlcNAcylated proteins by the use of a monoclonal antibody (CTD110.6; Cell Signaling, #9875) detecting O-GlcNAcylated residues as previously described (Dorfmueller et al. 2010 Chemistry & biology, 17:1250). Inhibition of OGA will result in an increase of O-GlcNAcylated protein levels resulting in an increased signal in the experiment. Cell nuclei are stained with Hoechst to give a cell culture quality control and a rough estimate of immediate compounds toxicity, if any. ICC pictures are imaged with a Perkin Elmer Opera Phenix plate microscope and quantified with the provided software Perkin Elmer Harmony 4.1.
Cells were propagated in DMEM high Glucose (Sigma, #D5796) following standard procedures. 2 days before the cell assay cells are split, counted and seeded in Poly-D-Lysine (PDL) coated 96-wells (Greiner, #655946) plate at a cell density of 12,000 cells per cm^2 (4,000 cells per well) in 100 µl of Assay Medium (Low Glucose medium is used to reduce basal levels of GlcNAcylation) (Park et al. 2014 The Journal of biological chemistry 289:13519). At the day of compound test medium from assay plates was removed and replenished with 90 μl of fresh Assay Medium. 10 μl of compounds at a 10 fold final concentration were added to the wells. Plates were centrifuged shortly before incubation in the cell incubator for 6 hours. DMSO concentration was set to 0.2%. Medium is discarded by applying vacuum. For staining of cells medium was removed and cells washed once with 100 μl D-PBS (Sigma, #D8537). From next step onwards unless other stated assay volume was always 50 μl and incubation was performed without agitation and at room temperature. Cells were fixed in 50 μl of a 4% paraformaldehyde (PFA, Alpha aesar, # 043368) PBS solution for 15 minutes at room temperature. […] Before analysis samples were washed 2 times manually for 5 minutes in ICC base buffer.
Imaging is performed using Perkin Elmer Phenix Opera using a water 20× objective and recording 9 fields per well. Intensity readout at 488 nm is used as a measure of O-GlcNAcylation level of total proteins in wells. To assess potential toxicity of compounds nuclei were counted using the Hoechst staining. IC50-values are calculated using parametric non-linear regression model fitting. As a maximum inhibition Thiamet G at a 200 uM concentration is present on each plate. In addition, a concentration response of Thiamet G is calculated on each plate.

Row | Structure (SMILES) | ENZYMATIC Emax (%) [1] [%] | ENZYMATIC hOGA; pIC50 [1] | CELLULAR Emax (%) [2] [%] | CELLULAR hOGA; pEC50 [2]
1 | CC(=O)Nc1ncc(CN2CCC3(CCN(c4ncc(F)cc4F)C3)C2)s1 (single isomer, unassigned) [47] | 97.2 | 7.37 | 43.4 | <6
2 | CC(=O)Nc1ncc(CN2CCC3(CCN(c4nc(C)cnc4C)C3)C2)s1 (single isomer, unassigned) [42] | 100.5 | 6.97 | 40.3 | <6
3 | CC(=O)Nc1ncc(CN2CCC3(CCN(c4ncc(F)cc4F)C3)C2)s1 (single isomer, unassigned) [48] | 99.1 | 6.88 |  | 
4 | CC(=O)Nc1ncc(CN2CCC3(CCN(c4nc(C)cnc4C)C3)C2)s1 (single isomer, unassigned) [41] | 99.6 | 7.10 | 52.0 | 6.09
